From patent publication US20250051345A1, “PYRIDINE-3-CARBOXYLATE COMPOUNDS AS CAV1.2 ACTIVATORS” (Novartis AG, priority 2021, published 2025) come the findings set out here.

The chains behind the UniProt entries cited, without tags or fusion partners.
UniProt Q13936, whole entry: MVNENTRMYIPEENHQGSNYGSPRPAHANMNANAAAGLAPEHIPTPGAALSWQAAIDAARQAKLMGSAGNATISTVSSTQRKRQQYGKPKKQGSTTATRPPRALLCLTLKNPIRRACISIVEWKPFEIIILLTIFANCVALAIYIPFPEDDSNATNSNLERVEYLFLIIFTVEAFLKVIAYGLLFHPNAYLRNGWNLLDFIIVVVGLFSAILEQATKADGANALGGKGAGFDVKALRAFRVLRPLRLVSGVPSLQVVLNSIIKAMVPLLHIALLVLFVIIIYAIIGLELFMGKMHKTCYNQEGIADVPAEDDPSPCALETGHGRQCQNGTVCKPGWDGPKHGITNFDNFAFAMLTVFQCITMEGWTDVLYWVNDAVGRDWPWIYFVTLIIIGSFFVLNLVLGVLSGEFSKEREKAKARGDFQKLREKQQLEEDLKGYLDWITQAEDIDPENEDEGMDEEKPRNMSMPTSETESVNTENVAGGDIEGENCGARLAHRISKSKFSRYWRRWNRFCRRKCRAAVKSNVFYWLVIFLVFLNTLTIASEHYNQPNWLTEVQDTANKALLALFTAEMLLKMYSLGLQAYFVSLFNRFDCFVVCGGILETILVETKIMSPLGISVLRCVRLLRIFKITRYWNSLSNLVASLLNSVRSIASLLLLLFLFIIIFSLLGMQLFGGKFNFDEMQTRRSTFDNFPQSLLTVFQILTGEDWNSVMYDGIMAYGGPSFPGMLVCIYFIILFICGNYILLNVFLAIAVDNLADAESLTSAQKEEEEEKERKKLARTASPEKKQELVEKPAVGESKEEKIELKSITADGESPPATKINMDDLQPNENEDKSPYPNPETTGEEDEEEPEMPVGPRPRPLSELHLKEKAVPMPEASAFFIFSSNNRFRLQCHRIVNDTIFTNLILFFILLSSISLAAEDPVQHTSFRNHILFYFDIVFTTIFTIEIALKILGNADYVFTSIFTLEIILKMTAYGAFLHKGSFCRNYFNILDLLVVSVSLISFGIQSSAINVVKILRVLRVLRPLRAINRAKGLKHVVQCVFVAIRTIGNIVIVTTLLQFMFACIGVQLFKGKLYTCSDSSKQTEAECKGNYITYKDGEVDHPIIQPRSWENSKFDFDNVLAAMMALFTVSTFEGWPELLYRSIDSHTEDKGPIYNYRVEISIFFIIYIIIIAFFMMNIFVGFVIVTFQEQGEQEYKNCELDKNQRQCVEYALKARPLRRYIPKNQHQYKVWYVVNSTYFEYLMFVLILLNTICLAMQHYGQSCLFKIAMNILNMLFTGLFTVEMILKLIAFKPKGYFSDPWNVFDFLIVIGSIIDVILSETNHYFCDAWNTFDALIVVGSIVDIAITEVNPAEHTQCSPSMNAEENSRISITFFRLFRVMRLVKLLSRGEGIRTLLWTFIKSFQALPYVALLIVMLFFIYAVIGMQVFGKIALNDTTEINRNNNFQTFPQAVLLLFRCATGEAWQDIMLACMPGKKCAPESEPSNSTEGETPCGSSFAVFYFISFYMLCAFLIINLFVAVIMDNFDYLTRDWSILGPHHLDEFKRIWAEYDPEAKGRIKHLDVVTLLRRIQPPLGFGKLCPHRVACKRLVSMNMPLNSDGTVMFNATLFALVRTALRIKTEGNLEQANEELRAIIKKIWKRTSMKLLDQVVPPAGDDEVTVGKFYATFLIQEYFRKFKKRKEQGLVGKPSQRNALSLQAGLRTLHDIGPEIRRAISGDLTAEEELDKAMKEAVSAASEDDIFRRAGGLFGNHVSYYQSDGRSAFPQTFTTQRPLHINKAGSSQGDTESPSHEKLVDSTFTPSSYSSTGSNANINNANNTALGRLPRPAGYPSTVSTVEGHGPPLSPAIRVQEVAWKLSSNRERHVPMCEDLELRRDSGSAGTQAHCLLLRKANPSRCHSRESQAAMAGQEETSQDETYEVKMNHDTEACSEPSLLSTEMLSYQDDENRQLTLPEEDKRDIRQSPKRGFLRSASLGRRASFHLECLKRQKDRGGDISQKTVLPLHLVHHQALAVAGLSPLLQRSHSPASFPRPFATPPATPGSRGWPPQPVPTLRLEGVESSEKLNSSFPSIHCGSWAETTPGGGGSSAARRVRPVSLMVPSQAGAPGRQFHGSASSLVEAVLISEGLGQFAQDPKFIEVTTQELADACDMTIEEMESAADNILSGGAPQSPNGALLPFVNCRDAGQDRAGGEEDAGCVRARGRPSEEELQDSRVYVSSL

This assay addresses human Cav1.2 (Homo sapiens (Human), UniProt Q13936). In words: Sophion QPatch dose-response assay, whole-cell voltage clamp of barium currents in the Cav1.2-HEK293 (AUX) cell line. It is filed as cell-based. On the technique in general: Patch clamp records ionic current or voltage across a cell membrane.
The mark [1] stands for this setting: maximal fold change of peak inward current.

`CCc1ccncc1[C@H]1C(C(=O)OC)=C(CF)NC2=C1C(=O)OC2` (single isomer, unassigned): under “fold change of peak inward current at 10 μM”, the “QPatch Emax” value amounted to 2.4 at.

Take `CCc1c(F)cncc1[C@H]1C(C(=O)OC)=C(C)NC2=C1C(=O)OC2` (single isomer, unassigned): the “QPatch Emax” value under setting [1] is reported as 2.9.

In the case of `CCc1c(F)cncc1[C@H]1C(C(=O)OC)=C(CF)NC2=C1C(=O)OC2` (single isomer, unassigned), the “QPatch Emax” value under setting [1] was found to be 1.7.
